Yeast mating assay B: variants of the scFv Ab-14

Source: Li et al. 2023 (doi:10.1038/s41467-023-39022-2), MIT Lincoln Laboratory and A-Alpha Bio; data file from the FLAb repository.

Target peptide (SARS-CoV-2 spike, HR2 region): PDVDLGDISGINAS

Ab-14 is the parent antibody, in scFv form: VH, then a (GGGGS)3 linker, then VL. The light chain is unchanged in all variants.
VH: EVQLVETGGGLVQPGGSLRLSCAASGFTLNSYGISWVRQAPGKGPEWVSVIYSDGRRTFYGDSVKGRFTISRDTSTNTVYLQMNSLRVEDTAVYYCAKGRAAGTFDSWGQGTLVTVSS
VL: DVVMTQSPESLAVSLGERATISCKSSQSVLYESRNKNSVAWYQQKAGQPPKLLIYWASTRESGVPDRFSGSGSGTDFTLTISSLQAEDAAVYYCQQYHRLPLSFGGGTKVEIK

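Phage display of a naive human antibody library on the peptide gave the parent. The variants were designed computationally from a first round of random CDR variants and then made and measured. Group labels follow the data file (Ctrl: baseline library sampled from a position-specific scoring matrix, with some repeated check sequences; Rand: our label for a block that the file lists under HC and that is probably the random mutants of the ten best first-round binders; En: ensemble of fine-tuned language models; GP: Gaussian process model; GPLM: also part of the Gaussian process libraries; HC: hill climbing; Gen: genetic algorithm; Gibbs: Gibbs sampling; a sequence that several methods proposed may carry one label only). The scFvs were displayed on barcoded MATa yeast, the peptide on MATalpha yeast. After mating in shaken culture at 30 °C for 16 h, diploids were selected and their barcode pairs sequenced. The ratio of observed to expected reads was calibrated, replicate by replicate, on BCL2-family standards whose Kd was known from biolayer interferometry. There are six technical replicates.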

Sequences are complete VH domains.
Affinities are written as log10 Kd with Kd in nM; a lower number is a better binder.
Replicates are averaged; those with no signal do not enter the mean.
An entry "no signal" has no value in the source: the pair was not observed among the diploids in any replicate. This suggests poor binding but is not conclusive.
The parent sequence was in this pool as ten entries: three were never detected, three once, and four in most replicates, with averages from 0.34 to 2.37.
In the paper, a design with two or fewer of six values counts as a poor binder.
Nonspecific signal, from three strains lacking the peptide, appeared in 1% of pairings of all heavy chain designs, centred on 2.08 (5% of these signals below 0.84); values are not corrected for it. The control count says in how many pairings with the empty strains this scFv gave a signal.
The range of this assay differs from that of the first round, and the authors advise against merging the two.

VH | group | mean log10 Kd (nM) | replicates with signal | empty controls
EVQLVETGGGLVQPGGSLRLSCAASGFNLDEYGISWVRQAPGKGPEWVSVIYADGRRTFYQDSVKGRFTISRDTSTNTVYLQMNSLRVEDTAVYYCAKGEGAGTFDVWGQGTLVTVSS | En_HC | -0.03 | 6 of 6 | 2 of 18
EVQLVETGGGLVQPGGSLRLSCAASGFSLNSYGISWVRQAPGKGPEWVSVIYSDGRRTFYGDAVKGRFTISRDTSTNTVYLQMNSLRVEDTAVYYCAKGKAAGTFDSWGQGTLVTVSS | GPLM_Gen | 0.45 | 6 of 6 | 1 of 18
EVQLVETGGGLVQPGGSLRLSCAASHFSLNEYGISWVRQAPGKGPEWVSVIYSDGRRTFYGDSVKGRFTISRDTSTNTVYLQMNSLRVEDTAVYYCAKGRNAGTFDSWGQGTLVTVSS | GP_Gen | 1.04 | 6 of 6 | 0 of 18
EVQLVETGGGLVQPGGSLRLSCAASGFTLNSYGISWVRQAPGKGPEWVSVIYSDGRRQIYGDSVKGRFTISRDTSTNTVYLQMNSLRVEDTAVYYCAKGRAAGTFDMWGQGTLVTVSS | Ctrl | no signal | 0 of 6 | 0 of 18
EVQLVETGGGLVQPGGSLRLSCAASGFTLRSYGISWVRQAPGKGPEWVSVIYSDGRRTFYGDSVKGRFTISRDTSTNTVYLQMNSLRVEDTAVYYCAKGRIAGTSVSWGQGTLVTVSS | Ctrl | no signal | 0 of 6 | 0 of 18
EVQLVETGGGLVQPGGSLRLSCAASGFDLNSYGISWVRQAPGKGPEWVSVIYSDGRRTFYVDQVKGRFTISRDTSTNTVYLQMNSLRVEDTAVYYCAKGQTAGTFDSWGQGTLVTVSS | GP_Gen | no signal | 0 of 6 | 0 of 18
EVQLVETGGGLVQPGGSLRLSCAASGFDLNEYGISWVRQAPGKGPEWVSVIYADGVRTFYTDSVKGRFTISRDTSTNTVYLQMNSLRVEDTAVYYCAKGANAGTFDSWGQGTLVTVSS | En_HC | 1.46 | 6 of 6 | 1 of 18
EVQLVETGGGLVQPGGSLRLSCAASGFDLNEYGISWVRQAPGKGPEWVSVIYADGMRTAYADKVKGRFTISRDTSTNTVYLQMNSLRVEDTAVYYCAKGSNAGTFDVWGQGTLVTVSS | En_Gen | -0.74 | 6 of 6 | 0 of 18
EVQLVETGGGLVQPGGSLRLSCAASGFDLNEYGISWVRQAPGKGPEWVSVIYADGKRTFYADSVKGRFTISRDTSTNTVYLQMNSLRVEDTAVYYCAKGQAAGTFDLWGQGTLVTVSS | En_HC | -0.40 | 6 of 6 | 0 of 18
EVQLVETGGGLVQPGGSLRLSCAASGFTLNSYGISWVRQAPGKGPEWVSVIYSDGRRTFYGDSVKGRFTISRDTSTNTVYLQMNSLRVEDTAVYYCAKGRAAFTFFSWGQGTLVTVSS | Ctrl | no signal | 0 of 6 | 0 of 18
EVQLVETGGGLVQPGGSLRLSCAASGFTNNSYGISWVRQAPGKGPEWVSVIYSDGRRTFYGDSVKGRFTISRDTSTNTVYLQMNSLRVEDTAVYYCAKGRAAGTFHSWGQGTLVTVSS | Ctrl | no signal | 0 of 6 | 1 of 18
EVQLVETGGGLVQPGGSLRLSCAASGFDLNSYGISWVRQAPGKGPEWVSVIYSDGRRTFYGDRVKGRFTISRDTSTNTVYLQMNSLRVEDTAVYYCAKGKIAGTFDSWGQGTLVTVSS | GP_Gen | 1.13 | 5 of 6 | 0 of 18
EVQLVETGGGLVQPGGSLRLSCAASGFDINEYGISWVRQAPGKGPEWVSVIYADGRRTQYADSVKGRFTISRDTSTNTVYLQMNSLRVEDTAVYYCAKGEAAGTFDIWGQGTLVTVSS | En_HC | 2.08 | 6 of 6 | 0 of 18
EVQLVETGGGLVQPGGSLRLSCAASGFDLNEYGISWVRQAPGKGPEWVSVIYADGSRTAYADSVKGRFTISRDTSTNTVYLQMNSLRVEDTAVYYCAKGQVAGTFDVWGQGTLVTVSS | En_Gen | -0.75 | 6 of 6 | 0 of 18
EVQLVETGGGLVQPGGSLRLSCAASGFTLNDYGISWVRQAPGKGPEWVSVIYSDGRRTFYIDSVKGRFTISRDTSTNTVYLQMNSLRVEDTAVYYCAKGRQAGTFISWGQGTLVTVSS | GP_HC | no signal | 0 of 6 | 0 of 18
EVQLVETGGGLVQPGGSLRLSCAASGFDLDEYGISWVRQAPGKGPEWVSVIYADGKRTAYADNVKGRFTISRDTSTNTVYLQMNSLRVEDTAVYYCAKGNVAGTFDQWGQGTLVTVSS | En_Gen | 0.05 | 6 of 6 | 0 of 18
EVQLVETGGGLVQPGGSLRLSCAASGFILNSYGISWVRQAPGKGPEWVSVIYSDGRRTFYGDSVKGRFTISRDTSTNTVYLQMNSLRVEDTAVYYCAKGQAAGTFDSWGQGTLVTVSS | Ctrl | 2.18 | 6 of 6 | 1 of 18
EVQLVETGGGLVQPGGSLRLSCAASGFDLNEYGISWVRQAPGKGPEWVSVIYADGVRTAYADSVKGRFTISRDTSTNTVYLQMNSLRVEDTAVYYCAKGNVAGTFDMWGQGTLVTVSS | En_Gen | -0.53 | 6 of 6 | 0 of 18
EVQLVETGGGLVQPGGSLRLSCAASGFDLNEYGISWVRQAPGKGPEWVSVIYADGRRTAYSDDVKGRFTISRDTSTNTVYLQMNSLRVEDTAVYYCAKGNVAGTFDVWGQGTLVTVSS | En_Gen | -0.47 | 6 of 6 | 0 of 18
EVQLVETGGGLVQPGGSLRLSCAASGFDLEEYGISWVRQAPGKGPEWVSVIYADGRRSSYTDKVKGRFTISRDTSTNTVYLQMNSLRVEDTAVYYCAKGGTVQMNGIWGQGTLVTVSS | En_Gibbs | no signal | 0 of 6 | 0 of 18
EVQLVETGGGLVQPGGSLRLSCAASGFDLNEYGISWVRQAPGKGPEWVSVIYADGMRTAYVDDVKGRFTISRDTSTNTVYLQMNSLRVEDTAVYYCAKGNVAGTFDIWGQGTLVTVSS | En_Gen | 0.75 | 6 of 6 | 0 of 18
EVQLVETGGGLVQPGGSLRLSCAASGFTLNDYGISWVRQAPGKGPEWVSVIYSDGRRTWYKDSVKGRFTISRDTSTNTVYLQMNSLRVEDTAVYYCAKGRAAGTFDSWGQGTLVTVSS | GPLM_HC | 0.44 | 1 of 6 | 0 of 18
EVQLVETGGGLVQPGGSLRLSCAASGFDLNSYGISWVRQAPGKGPEWVSVIYSDGRKTFYDDSVKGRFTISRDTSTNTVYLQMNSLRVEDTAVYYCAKGQEAGTFDSWGQGTLVTVSS | GP_HC | 1.09 | 5 of 6 | 0 of 18
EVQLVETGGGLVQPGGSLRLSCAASGNDLDEYGISWVRQAPGKGPEWVSVIYADGSRASYIDKVKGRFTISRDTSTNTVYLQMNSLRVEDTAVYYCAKGLVGGQLIVWGQGTLVTVSS | En_Gibbs | no signal | 0 of 6 | 1 of 18
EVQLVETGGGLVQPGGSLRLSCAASGFTLNSYGISWVRQAPGKGPEWVSVIYSTGRRTVYSDSVKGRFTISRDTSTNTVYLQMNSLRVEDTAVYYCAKGRAGGTFQSWGQGTLVTVSS | Rand | no signal | 0 of 6 | 1 of 18
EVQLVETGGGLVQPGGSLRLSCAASGFDLNEYGISWVRQAPGKGPEWVSVIYADGQRTAYVDSVKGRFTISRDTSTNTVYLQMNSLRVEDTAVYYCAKGNNAGTFDVWGQGTLVTVSS | En_Gen | -0.76 | 6 of 6 | 0 of 18

The closing 3 entries, repeated:

VH | group | mean log10 Kd (nM) | replicates with signal | empty controls
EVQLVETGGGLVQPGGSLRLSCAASGNDLDEYGISWVRQAPGKGPEWVSVIYADGSRASYIDKVKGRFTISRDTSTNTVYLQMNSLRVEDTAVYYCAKGLVGGQLIVWGQGTLVTVSS | En_Gibbs | no signal | 0 of 6 | 1 of 18
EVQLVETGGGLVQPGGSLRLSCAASGFTLNSYGISWVRQAPGKGPEWVSVIYSTGRRTVYSDSVKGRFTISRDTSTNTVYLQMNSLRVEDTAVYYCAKGRAGGTFQSWGQGTLVTVSS | Rand | no signal | 0 of 6 | 1 of 18
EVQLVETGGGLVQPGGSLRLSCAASGFDLNEYGISWVRQAPGKGPEWVSVIYADGQRTAYVDSVKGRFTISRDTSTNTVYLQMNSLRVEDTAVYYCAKGNNAGTFDVWGQGTLVTVSS | En_Gen | -0.76 | 6 of 6 | 0 of 18